## Experimental properties from OPERA 2.9

Values as listed in the OPERA 2.9 repository of K. Mansouri.

Melting points are in °C.
The boiling point refers to atmospheric pressure (760 mmHg), by the definition of the set.
logP is the log10 of the octanol-water partition coefficient; higher is more lipophilic.
Solubility in water is on a log10 molar scale (set defined at 25 °C).
Vapor pressures (log10 mmHg) refer to near room temperature, 15 to 30 °C; higher is more volatile.
The unbound fraction in human plasma runs from 0 (all bound) to 1 (all free).
Clint is human hepatic intrinsic clearance in µL/min per million cells; 0 means that no clearance was seen.
"–" marks a cell with nothing listed here.

melting point (°C),boiling point (°C),logP,log solubility (log10 mol/L),log vapor pressure (log10 mmHg),plasma fu,Clint (µL/min/10^6 cells),SMILES,name
141.2,–,0.018,–,-8.253,–,–,COS(=O)(=O)[O-].C[N+](C)(C)c1ccc2ccc(O)cc2c1,–
–,–,1.435,-1.199,–,–,–,CCCCOC(=O)CCC(C)=O,Butyl 4-oxopentanoate
–,–,-0.54,–,-4.184,–,–,Nc1ccc(OCCO)c(N)c1.O=S(=O)(O)O,–
174,–,–,-5.962,-8.897,–,–,CN1c2ccccc2C(=O)c2ccc(Cl)cc2S1(=O)=O,–
–,–,4.16,-4.645,–,–,–,CCCCC(CC)COC(C)=O (stereo not given),2-Ethylhexyl acetate
–,–,–,-5.158,–,0.28,–,C/C(=C\c1csc(C)n1)[C@@H]1C[C@@H]2O[C@]2(C)CCC[C@H](C)[C@H](O)[C@@H](C)C(=O)C(C)(C)[C@@H](O)CC(=O)N1,Ixabepilone
289.9,–,–,-6.489,-7.992,–,–,COc1ccc(N2CCN(c3ccc(-n4cn[nH]c4=O)cc3)CC2)cc1,–
114.4,–,–,–,-6.907,–,–,CCC[C@H]1CC[C@H]([C@H]2CC[C@H](c3ccc(-c4cc(F)c(F)c(F)c4)c(F)c3)CC2)CC1,–
–,–,4.51,-3.803,-0.65,–,–,CCOC(=O)[C@@H]1[C@@H](C)CCCC1(C)C (stereo in doubt),"Ethyl (1R,6S)-2,2,6-trimethylcyclohexanecarboxylate"
–,–,3.43,-2.962,-5.275,–,–,CC(C)COC(=O)c1ccc(O)cc1,Isobutylparaben
–,–,–,–,-7.766,0.6333,–,Nc1cccc2c(N)cccc12,"1,5-Naphthalenediamine"
–,–,–,-3.929,-0.516,–,–,CCCCCCOC(=O)CCC,Hexyl butyrate
–,–,1.87,–,-0.202,–,–,CC(C)(O)Cc1ccccc1,"1,1-Dimethylphenylethanol"
41.8,269.9,3.639,–,–,–,–,CC(C)[C@@H]1CC[C@@H](C)C[C@H]1OC(=O)[C@H](C)O,Menthyl lactate
54,–,–,-7.285,–,–,–,CCCCCCCCCCCCCCCCCC(=O)OC[C@@H](OC(=O)CCCCCCCCCCCCCCCCC)[C@H]1OC[C@H](O)[C@H]1OC(=O)CCCCCCCCCCCCCCCCC,Sorbitan tristearate
–,–,-1.45,-2.596,–,–,–,NC(=O)N[C@H]1CC[C@H](NC(N)=O)CC1,"1,1'-(trans-1,4-Cyclohexanediyl)diurea"
135,–,0.92,-2.938,–,–,–,CC(=O)OCC(CCn1cnc2c(Cl)nc(N)nc21)COC(C)=O,–
–,–,–,-3.089,–,0.475,–,COc1cccc(OC)c1C(=O)N[C@@H]1C(=O)N2[C@@H]1SC(C)(C)[C@@H]2C(=O)O,Methicillin
–,404,–,-6.934,-8.64,–,–,CCCOc1ccc(C2=CCC([C@H]3CC[C@H](CCC)CC3)CC2)c(F)c1F (some centres not stated),–
–,–,1.9,-5.275,–,–,–,O=C1c2ccccc2-c2ccc3c4c(ccc1c24)-c1c(Br)ccc(Br)c1C3=O,C.I. Vat Orange 23
–,–,-2.18,–,–,0.352,0,C1N2CN3CN1CN(C2)C3,Methenamine
85,–,–,-2.379,–,–,–,COC(=O)CS(=O)(=O)c1ccc(Cl)cc1,Methyl [(4-chlorophenyl)sulfonyl]acetate
147.3,–,-4.04,–,–,–,–,Cc1cc(/N=N/c2ccc(/C=C/c3ccc(/N=N/c4c(C)cc(O)cc4C(=O)[O-])cc3S(=O)(=O)[O-])c(S(=O)(=O)[O-])c2)cc(C(=O)[O-])c1O.[Li+].[Li+].[Li+].[Li+],–
–,–,0.324,–,-2.559,–,–,CC(=O)NCCO,N-(2-Hydroxyethyl)acetamide
–,–,–,-5.984,-6.046,–,–,CCc1ccc2c(c1)C(=O)c1ccccc1C2=O,2-Ethylanthraquinone
–,–,2.79,-4.158,–,–,–,COc1ccc2cccc(CC#N)c2c1,7-Methoxy-1-naphthylacetonitrile
–,–,–,-6.74,-5.385,–,–,CCCCCCCCC(=O)OCC(COC(=O)CCCCCCCC)OC(=O)CCCCCCCC,Tripelargonin
–,–,-2.4,-2.528,-5.979,–,–,O=S(=O)([O-])c1cc(S(=O)(=O)O)cc2nc(-c3ccc(-c4nc5cc(S(=O)(=O)O)cc(S(=O)(=O)[O-])c5[nH]4)cc3)[nH]c12.[Na+].[Na+],Bisdisulizole disodium
–,–,1.6,-3.229,–,–,–,O=C(O)CSc1nc2ccccc2s1,2-(Carboxymethylthio)benzothiazole
–,–,1.1,–,-6.921,–,–,CC(=O)O.Nc1ccc(/N=N/c2ccccc2)c(N)c1,–
–,–,0.2,-2.809,–,0.064,–,CC(=O)[C@]1(O)Cc2c(O)c3c(c(O)c2[C@@H](O[C@H]2C[C@H](N)[C@H](O)[C@H](C)O2)C1)C(=O)c1ccccc1C3=O,Idarubicin
-2,–,–,-8.235,–,–,–,CCCCCCCCCC(=O)OCC(C)(C)COC(=O)CCCCCCCCC,"Decanoic acid, 2,2-dimethyl-1,3-propanediol diester"
-76.6,–,4.45,-3.56,-0.682,–,–,CC(=O)OC1CCC2CCCCC2C1 (stereo not given),Decahydro-2-naphthyl acetate
–,–,2.4,-2.354,–,–,–,C=Cc1ccc(OC(C)=O)cc1,4-Ethenylphenyl acetate
112,–,9.6,–,–,–,–,CC(=O)Oc1ccc(C(C)(C)CC(C)(C)C)cc1C1C(=O)Oc2ccc(C(C)(C)CC(C)(C)C)cc21 (stereo not given),–

The last 2 entries again:

{"smiles": "C=Cc1ccc(OC(C)=O)cc1", "name": "4-Ethenylphenyl acetate", "logP": "2.4", "log solubility (log10 mol/L)": "-2.354"}
{"smiles": "CC(=O)Oc1ccc(C(C)(C)CC(C)(C)C)cc1C1C(=O)Oc2ccc(C(C)(C)CC(C)(C)C)cc21", "stereo": "stereo not given", "melting point (°C)": "112", "logP": "9.6"}

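OPERA's authors assembled the values from existing databases and did not measure them anew. A listed value is a point estimate from one report or more. Conditions of the individual experiments are not part of the data. Where a salt, mixture or single isomer is drawn, the source does not say that exactly this form was tested. Some upstream entries may be estimates or bounds without being marked so.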